Only a part is listed here, and it is no random draw. Calls of active or inactive are those of the source.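 Rule for the calls: active = fluorescence ratio to DMSO above its plate's cutoff, the plate mean ratio plus 5 SD (cut at about 210% in these data); inactive = the rest.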

The assay is described as follows: compound autofluorescence in empty-vector yeast, confirmation, artefact control for antifungal efflux pump inhibitor project, S. cerevisiae AD/pABC3, flow cytometry, Cherry Pick1 set (AID 588517).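 Note: unstained yeast with no Nile Red so the signal is compound autofluorescence.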 To be noted: at 10 µM, stronger effect = higher value. On the technique in general: Flow cytometry measures light scatter and fluorescence of single cells or particles in a stream.
Regarding `O=P(Nc1nccs1)(c1ccccc1)c1nc2ccccc2s1` (stereo unspecified), the fluorescence ratio to DMSO is inactive: 103%.

The values above are taken from PubChem BioAssay AID588517 (NMMLSC, 2011).
